# Test results published in publication PMC6553708 (PLoS ONE, 2019).
# The chains behind the UniProt entries cited, without tags or fusion partners. Where a name states a change or a piece, a line headed by the entry shows the natural chain unless it says otherwise.
# UniProt P35372, whole entry: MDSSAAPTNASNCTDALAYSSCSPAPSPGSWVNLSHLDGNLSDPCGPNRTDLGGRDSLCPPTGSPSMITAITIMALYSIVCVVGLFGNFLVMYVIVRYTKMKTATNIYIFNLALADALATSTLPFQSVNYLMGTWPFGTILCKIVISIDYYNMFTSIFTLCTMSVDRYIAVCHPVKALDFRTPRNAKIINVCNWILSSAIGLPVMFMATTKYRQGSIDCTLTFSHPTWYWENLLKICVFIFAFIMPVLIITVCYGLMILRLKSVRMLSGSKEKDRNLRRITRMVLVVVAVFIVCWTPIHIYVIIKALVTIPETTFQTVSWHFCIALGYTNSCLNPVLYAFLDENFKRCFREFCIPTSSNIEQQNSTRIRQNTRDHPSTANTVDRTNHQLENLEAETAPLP
# UniProt P41145: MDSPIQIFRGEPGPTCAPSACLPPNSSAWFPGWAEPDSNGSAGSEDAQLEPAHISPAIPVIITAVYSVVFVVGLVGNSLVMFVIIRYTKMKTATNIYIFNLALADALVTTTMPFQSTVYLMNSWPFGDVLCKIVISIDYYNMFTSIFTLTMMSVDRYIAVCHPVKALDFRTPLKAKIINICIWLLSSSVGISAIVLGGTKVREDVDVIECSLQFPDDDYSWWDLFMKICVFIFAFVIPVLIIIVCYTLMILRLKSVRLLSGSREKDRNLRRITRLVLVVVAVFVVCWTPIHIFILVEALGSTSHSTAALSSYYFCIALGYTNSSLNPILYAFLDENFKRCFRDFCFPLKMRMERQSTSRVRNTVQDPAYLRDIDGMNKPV
# Several values for one entry are separate records, joined by “and”; a condition that tells them apart may be missing. Identical values can stand only once.
# Assays:
# Mu Opioid Receptor (MOR) [1] = molecular target: T1, Mu Opioid Receptor (MOR) (Homo sapiens, UniProt P35372)
# Mu Opioid Receptor (MOR) [2] = molecular target: T1, Mu Opioid Receptor (MOR); details: read-out: Target Binding Affinity Determined by Competition Radioligand Binding–KI, MOR
# [3] = molecular target: T2, Kappa Opioid Receptor (KOR) (Homo sapiens, UniProt P41145)
# [4] = molecular target: T2, Kappa Opioid Receptor (KOR); type: biochemical; set-up: membranes used
# [5] = molecular target: T2, Kappa Opioid Receptor (KOR); test: biochemical; details: KOR EC50 (35S-GTPγS)
# MOR = details: cited from earlier work
smiles,measurement,setting,value
CN(C)C[C@H]1CCCC[C@]1(O)c1cccc(O)c1,MOR EMAX (35S-GTPγS),Mu Opioid Receptor (MOR) [1],97 ± 2%
same,EC50,Mu Opioid Receptor (MOR) [1]; read-out: MOR EC50 (35S-GTPγS),360 ± 110 nM
same,Ki,Mu Opioid Receptor (MOR) [2],1300 ± 290 nM
COc1ccc2c3c1O[C@H]1C(=O)CC[C@H]4[C@@H](C2)N(C)CC[C@]314 [Hydrocodone],Potential new finding: activity at KOR (in words),[3],KOR partial agonist; CB1 partial agonist; σ1R binding
same,KOR antagonist activity (in words),[4],no KOR antagonist activity
same,EC50,[5],236 nM and 240 nM
CCC(=O)C(CC(C)N(C)C)(c1ccccc1)c1ccccc1 (stereo not shown) [methadone],operational efficacy τ in vitro,MOR,18.2
